# Source: PubChem BioAssay (Tox21)
# Amino acid sequences for entries named in this document (tags omitted).
# UniProt P19793, whole entry: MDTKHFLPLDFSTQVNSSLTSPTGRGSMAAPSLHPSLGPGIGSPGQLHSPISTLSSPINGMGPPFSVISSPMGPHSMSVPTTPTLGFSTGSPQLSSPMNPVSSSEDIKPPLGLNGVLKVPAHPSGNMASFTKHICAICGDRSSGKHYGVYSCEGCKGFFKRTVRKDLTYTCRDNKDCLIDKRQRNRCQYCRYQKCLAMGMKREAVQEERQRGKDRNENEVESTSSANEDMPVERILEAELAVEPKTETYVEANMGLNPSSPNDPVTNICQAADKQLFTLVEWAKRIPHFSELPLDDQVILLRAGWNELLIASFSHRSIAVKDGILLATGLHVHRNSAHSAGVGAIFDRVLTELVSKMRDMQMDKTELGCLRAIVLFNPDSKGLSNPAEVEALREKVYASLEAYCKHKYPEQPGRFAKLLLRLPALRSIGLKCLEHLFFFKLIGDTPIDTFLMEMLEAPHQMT
# UniProt Q14994, whole entry: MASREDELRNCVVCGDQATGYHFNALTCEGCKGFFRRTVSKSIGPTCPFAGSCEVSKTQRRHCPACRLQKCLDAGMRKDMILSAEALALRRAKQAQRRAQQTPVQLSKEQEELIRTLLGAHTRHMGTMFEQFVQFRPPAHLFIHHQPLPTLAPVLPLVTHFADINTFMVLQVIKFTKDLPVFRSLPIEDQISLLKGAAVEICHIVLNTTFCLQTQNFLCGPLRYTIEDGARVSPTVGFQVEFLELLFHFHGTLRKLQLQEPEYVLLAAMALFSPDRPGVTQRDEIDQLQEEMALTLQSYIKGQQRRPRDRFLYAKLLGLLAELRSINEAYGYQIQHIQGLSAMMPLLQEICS
# This is a selection; strong and weak results do not stand in their true shares. Inconclusive results are not listed. Activity calls are given as the source filed them. Unless noted, calls follow the shape of the dose curve; as a rule, active = well fitted curve in the direction sought with a large enough effect in the repeat runs; inconclusive = weak or mixed curves; inactive = no such curve, though single readings can be large; an effect the other way counts as inactive or inconclusive.
# How the values were obtained:
# [1] = qHTS assay to identify small molecule antagonists of the vitamin D receptor (VDR) signaling pathway - cell viability counter screen (AID 743225); settings: VDR-bla HEK293T viability, CellTiter-Glo luminescence, 16 h; at 61 µM (top of the series); also: nearly all actives have a fitted effect of over 50% in size
# Procedure, shortened: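 Parallel cytotoxicity test: VDR-UAS-bla HEK 293T, 3 nM (final) 1-alpha,25-dihydroxyvitamin D3 with test compound, 16 h, 37C. Endpoint is CellTiter-Glo luminescence in the same wells.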
# [2] = qHTS assay to identify small molecule agonists of the NFkB signaling pathway - cell viability counter screen (AID 1159515; calls by dose curve; also: nearly all actives have a fitted effect of over 55% in size); settings: NFkB-bla ME-180 viability, CellTiter-Glo luminescence, 5 h
# Procedure, shortened: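 Tox21 library compounds were tested for cytotoxicity against NFkB-bla ME-180 cells during a 5 hr exposure at 37 C. CellTiter-Glo luminescence served as the viability read-out.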
# [3] = qHTS assay to identify small molecule agonists of the endoplasmic reticulum stress response signaling pathway - cell viability counter screen (AID 1159517; calls by dose curve;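 also: HeLa cells carrying an ER stress response element beta-lactamase reporter; nearly all actives have a fitted effect of over 50% in size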); settings: ESRE-bla HeLa viability, CellTiter-Glo luminescence, 5 h
# Procedure, shortened: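 After overnight attachment, ESRE-bla HeLa cells were treated with Tox21 library compounds for 5 hr. CellTiter-Glo luminescence, read 30 min post-addition at room temperature, reported viability.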
# [4] = qHTS assay to identify small molecule antagonists of the retinoid-related orphan receptor gamma (ROR-gamma) signaling pathway - cell viability counter screen (AID 1159520); settings: Tet-on RORgamma CHO cells viability, ATP luminescence, 16 h; at 92.4 µM (top of the series) unless noted; also: nearly all actives have a fitted effect of over 50% in size
# Procedure, shortened: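 Cytotoxicity was read from cellular ATP (CellTiter-Glo luminescence) after 16 hr at 37 C with 1 uM doxycycline induction. The inducer was added 2 hr after compound transfer to Tet-on ROR gamma CHO cells.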
# [5] = target: Nuclear receptor ROR-gamma (Homo sapiens) (UniProt P51449); test: qHTS assay to identify small molecule antagonists of the retinoid-related orphan receptor gamma (ROR-gamma) signaling pathway (AID 1159521;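 also: CHO cells with doxycycline inducible ROR-gamma driving an RORE luciferase reporter; top concentration of the series differs between compounds; nearly all actives have a fitted effect of over 50% in size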); settings: Tet-on RORgamma CHO cells, RORE-luciferase, 16 h; at 92.4 µM (top of the series)
# [6] = qHTS assay to identify small molecule agonists of the AP-1 signaling pathway (AID 1159526; calls by dose curve); settings: ME-180 (cervical carcinoma) AP-1-bla reporter, beta-lactamase FRET ratio, 5 h; at 76.8 µM (top of the series)
# [7] = target: Retinoic acid receptor RXR-alpha (Homo sapiens) (UniProt P19793); test: qHTS assay to identify small molecule agonists of the RXR signaling pathway (AID 1159527; calls by dose curve; also: nearly all actives have a fitted effect of over 35% in size; also: potency is read from the fitted curve at half-maximal effect); settings: HEK293T RXRa-UAS-bla, beta-lactamase ratio, 16 h; series mostly up to 76.8 µM
# Procedure, shortened: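 16 hr incubation of compound-treated RXR-alpha-UAS-bla HEK 293T cells (2% charcoal-stripped FBS, 37 C) preceded a 2 hr room-temperature LiveBLAzer FRET substrate step and blue/green fluorescence measurement.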
# [8] = qHTS assay to identify small molecule antagonists of the retinoid acid receptor (RAR) signaling pathway - cell viability counter screen (AID 1159551); settings: C3RL4 cells viability, ATP luminescence (CellTiter-Glo), 6 h; at 92.4 µM (top of the series) unless noted; also: nearly all actives have a fitted effect of over 35% in size
# Procedure, shortened: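 In this counter screen, the RARE-luciferase line C3RL4 was exposed for 6 h at 37 C and 5% CO2 to compounds with retinol at 1 uM final. Cellular ATP, read by luminescence, served as the viability measure.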
# [9] = qHTS assay to identify small molecule antagonists of the retinoic acid receptor (RAR) signaling pathway (AID 1159552; also: nearly all actives have a fitted effect of over 50% in size); settings: C3RL4 RARE luciferase reporter, retinol-stimulated, 6 h
# Procedure, shortened: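 C3RL4 RARE-luc cells, overnight plating; retinol 1 uM final added right after compound; 6 hr 37 C; luciferase read at 30 min RT.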
# [10] = qHTS assay to identify small molecule agonists of the retinoic acid receptor (RAR) signaling pathway (AID 1159553); settings: C3RL4 RARE luciferase reporter, agonist, 6 h
# Procedure, shortened: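 In this cell-based screen, 1,000 C3RL4 cells per well were cultured overnight, dosed with test chemicals in DMSO for 6 hr, and assessed for RARE luciferase luminescence.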
# [11] = qHTS assay to identify small molecule antagonists of the estrogen related receptor (ERR) signaling pathway from Tox21 library - cell viability counter screen (AID 1224834); settings: ERR reporter cells viability, CellTiter-Fluor, 17.5 h; at 92.4 µM (top of the series); also: nearly all actives have a fitted effect of over 30% in size
# Procedure, shortened: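 Counter screen run in ERR cells (2,000 cells/well): cells pre-incubated 6 h, then treated with compounds for 17.5 h at 37 C. Fluorescence was read 30 min after CellTiter-Fluor addition.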
# [12] = qHTS assay to identify small molecule agonists of the constitutive androstane receptor (CAR) signaling pathway - cell viability counter screen (AID 1224836); settings: HepG2-CYP2B6-hCAR viability, CellTiter-Fluor, 23 h; at 92.4 µM (top of the series); PK11195 added to every well; also: nearly all actives have a fitted effect of over 45% in size
# Procedure, shortened: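 Using CellTiter-Fluor, viability of HepG2 cells harbouring hCAR and CYP2B6-2.2kb was measured following 23 h incubation with a 15-concentration compound series plus PK11195 (0.75 uM final).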
# [13] = qHTS assay to identify small molecule antagonists of the constitutive androstane receptor (CAR) signaling pathway - cell viability counter screen (AID 1224837); settings: HepG2-CYP2B6-hCAR viability, CellTiter-Fluor, 23 h, co-treated with 50 nM CITCO; at 92.4 µM (top of the series) unless noted; also: nearly all actives have a fitted effect of over 45% in size
# Procedure, shortened: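 CITCO at 50 nM final was added alongside compounds (15 concentrations) to double-stable hCAR/CYP2B6-2.2kb HepG2 cells. Following 23 hr at 37 C, cell viability was quantified by CellTiter-Fluor fluorescence intensity.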
# [14] = target: Nuclear receptor subfamily 1 group I member 3 (Homo sapiens) (UniProt Q14994); test: qHTS assay to identify small molecule antagonists of the constitutive androstane receptor (CAR) signaling pathway (AID 1224838); settings: HepG2-CYP2B6-hCAR luciferase, CITCO-stimulated, 24 h;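 also: HepG2 cells stably expressing hCAR with CYP2B6 luciferase reporter stimulated by CITCO; nearly all actives have a fitted effect of over 40% in size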
# [15] = qHTS assay to identify small molecule antagonists of the estrogen related receptor (ERR) signaling pathway - cell viability counter screen (AID 1224818); settings: ERR reporter cell line viability counter screen; at 92.2 µM (top of the series)
# Procedure, shortened: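 Viability of ERR cells, CellTiter-Fluor fluorescence; 17.5 h compound exposure at 37 C, DMSO vehicle; 30 min reagent incubation at 37 C/5% CO2.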
# [16] = qHTS assay to identify small molecule antagonists of the estrogen related receptor (ERR) signaling pathway (AID 1224819); settings: ERR reporter cell line, luciferase inhibition; at 92.2 µM (top of the series)
# Procedure, shortened: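 Seed ERR cells 2,000/well; rest 6 h at 37 C/5% CO2; pin compounds in DMSO; incubate 18 h at 37 C; add One-Glo; wait 30 min at room temperature; measure luminescence.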
# [17] = qHTS assay to identify small molecule agonists of the estrogen related receptor (ERR) signaling pathway (AID 1224820); settings: ERR reporter cell line, luciferase agonist mode; at 92.2 µM (top of the series)
# Procedure, shortened: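 Following a 6 h settling period, 2,000 ERR cells per well receive DMSO-dissolved compounds by pin tool and incubate 18 h at 37 C; agonist activity is scored from One-Glo luminescence read 30 min post-addition.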
# [18] = tested on: estrogen-related receptor alpha (ERRalpha) with PGC-1alpha coactivator, human; test: qHTS assay to identify small molecule antagonists of the estrogen related receptor signaling pathway with the pleiotropic PPARgamma coactivator (PGC) (AID 1224821; calls by dose curve); settings: ERR/PGC reporter cell line, luciferase, antagonist mode; at 92.2 µM (top of the series)
# Procedure, shortened: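 Screening used NTP's PGC/ERR cells, dosed via pin tool with compound in DMSO alongside positive and negative controls. After 18 h at 37 C, One-Glo reagent sat 30 min at room temperature before luminescence detection.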
# [19] = qHTS assay to identify small molecule antagonists of the estrogen related receptor signaling pathway with the pleiotropic PPARgamma coactivator (PGC) cell viability counter screen (AID 1224822); settings: ERR/PGC reporter cell line viability counter screen; at 92.2 µM (top of the series)
# Procedure, shortened: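 17.5 h compound treatment of PGC/ERR cells at 37 C; readout CellTiter-Fluor fluorescence; run alongside the PGC/ERR antagonist screen to flag cytotoxic compounds.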
# [20] = qHTS assay to identify small molecule agonists of the estrogen related receptor signaling pathway with the pleiotropic PPARgamma coactivator (PGC) (AID 1224823); settings: ERR/PGC reporter cell line, luciferase agonist mode; at 92.2 µM (top of the series)
# Procedure, shortened: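 In this quantitative high-throughput screen, an 18 h, 37 C treatment of PGC/ERR cells with compounds in DMSO preceded a One-Glo luminescence read taken after 30 min at room temperature.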
# % is scaled to controls: 0 for no effect and ±100 for the full control effect.
compound,measurement,setting,value
CCOP(=O)(CC)OCC,"viability change, negative = cytotoxic",[1],inactive: 11.1%
same,"activity, negative = cytotoxic",[2]; at 61 µM (top of the series),inactive: 7.43%
same,"activity change, negative = cytotoxicity",[3]; at 61 µM (top of the series),inactive: -6.28%
same,"activity, negative = cytotoxicity",[4],inactive: -8.95%
same,"activity change, negative = inhibition",[5],inactive: -4.92%
same,activation,[6],inactive: -4.09%
same,Potency,[7],inactive
same,"activity change, negative = cytotoxicity",[8],inactive: 0.331%
same,"activity, negative = inhibition",[9]; at 92.4 µM (top of the series),inactive: 4.64%
same,activation,[10]; at 73.3 µM (top of the series),inactive: -0.709%
same,"viability change, negative = cytotoxic",[11],inactive: 1.31%
same,"viability change, negative = cytotoxic",[12],inactive: 4.29%
same,"activity change, negative = cytotoxicity",[13],inactive: 0.413%
CP(=O)(O)OCCC[Si](O)(O)O,"viability change, negative = cytotoxic",[1],inactive: 8.12%
same,"activity, negative = cytotoxic",[2]; at 61 µM (top of the series),inactive: 2.24%
same,"activity change, negative = cytotoxicity",[3]; at 61 µM (top of the series),inactive: 3.12%
same,"activity, negative = cytotoxicity",[4],inactive: 8.35%
same,activation,[6],inactive: 2.61%
same,Potency,[7],inactive
same,"activity change, negative = cytotoxicity",[8],inactive: 0.396%
same,"activity, negative = inhibition",[9]; at 92.4 µM (top of the series),inactive: 3.33%
same,activation,[10]; at 73.3 µM (top of the series),inactive: 0.394%
same,"viability change, negative = cytotoxic",[11],inactive: 5.68%
same,"viability change, negative = cytotoxic",[12],inactive: 2.98%
same,"activity change, negative = cytotoxicity",[13],inactive: 6.65%
same,"activity, negative = inhibition",[14]; at 92.4 µM (top of the series),inactive: -0.532%
O=[N+]([O-])OCC(CO[N+](=O)[O-])(CO[N+](=O)[O-])CO[N+](=O)[O-],"viability change, negative = cytotoxic",[1],inactive: 11.6%
same,"activity, negative = cytotoxic",[2]; at 61 µM (top of the series),inactive: 7.84%
same,"activity change, negative = cytotoxicity",[3]; at 61 µM (top of the series),inactive: 7.15%
same,"activity, negative = cytotoxicity",[4],inactive: 0.445%
same,"activity change, negative = inhibition",[5],inactive: 14.6%
same,activation,[6],inactive: -4.81%
same,Potency,[7],inactive
same,"activity change, negative = cytotoxicity",[8],inactive: 0.575%
same,"activity, negative = inhibition",[9]; at 92.4 µM (top of the series),inactive: 17.3%
same,activation,[10]; at 73.3 µM (top of the series),inactive: 0.574%
same,"viability change, negative = cytotoxic",[11],inactive: -0.781%
same,"viability change, negative = cytotoxic",[12],inactive: 2.05%
same,"activity change, negative = cytotoxicity",[13],inactive: 0.242%
same,"activity, negative = inhibition",[14]; at 92.4 µM (top of the series),inactive: -1.72%
Cc1cccc([N+](=O)[O-])c1[N+](=O)[O-],"activity, negative = cytotoxic",[2]; at 61 µM (top of the series),inactive: -15.7%
same,"activity, negative = cytotoxicity",[4],inactive: 0.522% [at 42.5 µM]
same,Potency,[7],active: 20.7 µM
same,"activity change, negative = cytotoxicity",[8],inactive: -3.04% [at 42.5 µM]
same,"activity, negative = inhibition",[9]; at 42.5 µM (top of the series),inactive: 9.41%
same,activation,[10]; at 73.3 µM (top of the series),inactive: 1.34%
same,"viability change, negative = cytotoxic",[15],inactive: 13.9%
same,"activity change, negative = inhibition",[16],inactive: -8.77%
same,activation,[17],inactive: -10.1%
same,"activity change, negative = inhibition",[18],inactive: -0.186%
same,"viability change, negative = cytotoxic",[19],inactive: 5.68%
same,activation,[20],inactive: -3%
same,"activity change, negative = cytotoxicity",[13],inactive: -2.78% [at 42.5 µM]
same,"activity, negative = inhibition",[14]; at 42.5 µM (top of the series),inactive: 120%
Nc1cc([N+](=O)[O-])cc([N+](=O)[O-])c1O,"activity, negative = cytotoxic",[2]; at 78.8 µM (top of the series),inactive: -12%
same,"activity change, negative = cytotoxicity",[3]; at 78.8 µM (top of the series),inactive: -33.8%
same,"activity, negative = cytotoxicity",[4],inactive: -21.5%
same,activation,[6],inactive: -14%
same,Potency,[7],inactive
same,"activity change, negative = cytotoxicity",[8],inactive: -6.35%
same,activation,[10]; at 94.8 µM (top of the series),inactive: -6.5%
same,"activity, negative = inhibition",[14]; at 92.4 µM (top of the series),inactive: 15.2%
